Apparent affinities of Ab-95 variants for a coronavirus HR2 peptide

The target is the same throughout: PDVDLGDISGINAS, from the HR2 region of SARS-CoV-2 spike.

Parent scFv Ab-95: VH joined to VL by a (GGGGS)3 linker. Changes lie in the light chain CDRs alone.
VH: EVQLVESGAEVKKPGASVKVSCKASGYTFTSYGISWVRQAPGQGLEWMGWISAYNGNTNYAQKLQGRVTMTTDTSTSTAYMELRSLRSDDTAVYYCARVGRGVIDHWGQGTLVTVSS
VL: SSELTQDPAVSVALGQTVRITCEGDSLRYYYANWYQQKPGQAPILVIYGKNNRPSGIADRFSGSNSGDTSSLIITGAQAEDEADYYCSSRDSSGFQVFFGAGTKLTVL

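Phage display of a naive human antibody library on the peptide gave the parent. AAYL52 was designed without a model: most single CDR substitutions and a random sample of double and triple ones. In AlphaSeq, yeast of one mating type display the scFv and yeast of the other type display the target. The frequency of each diploid, read from paired DNA barcodes, reflects how well the two displayed proteins bind. A regression on co-assayed BCL2-family reference pairs converts the normalised counts of each replicate to an apparent Kd. Mating was done three times.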

Changes read parent residue, position, new residue, counted from the first residue of the VL shown. Every variant below is changed at Q96 of the VL (sequential numbering). The Kd shown is the geometric mean over detected replicates; a lower Kd is a better binder. "no signal" marks a missing value. The strain was present, yet no cells mated with the target were sequenced in any replicate, which points to weak or no binding.

* G49I+S92Q+Q96H -> 26 µM (1 of 3 replicates; controls 1 of 9)
* R53N+P54R+Q96P -> no signal (0 of 3 replicates; controls 0 of 9)
* G49M+S92L+Q96P -> 7.7 µM (1 of 3 replicates; controls 1 of 9)
* R28V+S55Y+Q96L -> 17 µM (3 of 3 replicates; controls 3 of 9)
* Y29L+R53T+Q96P -> 3.3 µM (2 of 3 replicates; controls 4 of 9)
* Q96S+F98H -> 200 nM (3 of 3 replicates; controls 5 of 9)
* L27C+Q96F+F98L -> 550 nM (1 of 3 replicates; controls 0 of 9)
* Y29L+A32L+Q96R -> 210 µM (2 of 3 replicates; controls 3 of 9)
* L27W+Q96N -> 5.4 µM (3 of 3 replicates; controls 2 of 9)
* G24N+Q96T+V97R -> 14 µM (1 of 3 replicates; controls 1 of 9)
* S93M+F95M+Q96C -> 8.7 µM (1 of 3 replicates; controls 1 of 9)
* G49Q+P54L+Q96I -> 68 µM (1 of 3 replicates; controls 4 of 9)
* R53N+F95W+Q96H -> 740 µM (1 of 3 replicates; controls 2 of 9)
* Q96G -> 1.2 µM (3 of 3 replicates; controls 2 of 9)
* A32C+N51M+Q96L -> 10 µM (1 of 3 replicates; controls 3 of 9)
* S55N+Q96H+F98G -> 110 nM (3 of 3 replicates; controls 4 of 9)
* G24S+Y29V+Q96A -> 3.3 µM (2 of 3 replicates; controls 5 of 9)
* Y31I+P54C+Q96G -> no signal (0 of 3 replicates; controls 2 of 9)
* R53S+S55V+Q96E -> 3.0 µM (2 of 3 replicates; controls 5 of 9)
* Y31N+Q96N -> 9.8 nM (3 of 3 replicates; controls 3 of 9)
* Y31R+P54K+Q96F -> 12 µM (2 of 3 replicates; controls 6 of 9)
* S55N+D91A+Q96P -> 230 nM (3 of 3 replicates; controls 7 of 9)
* Y29C+P54Q+Q96S -> 25 µM (3 of 3 replicates; controls 2 of 9)
* Q96S+V97F -> 430 nM (3 of 3 replicates; controls 5 of 9)
* S26K+Q96S -> 110 µM (2 of 3 replicates; controls 5 of 9)
* P54V+G94C+Q96R -> 220 nM (3 of 3 replicates; controls 6 of 9)
* G94K+Q96E+F98G -> 2.1 µM (1 of 3 replicates; controls 5 of 9)
* Y29C+G49P+Q96G -> 790 nM (1 of 3 replicates; controls 1 of 9)
* N51P+S92Q+Q96F -> 2.2 µM (2 of 3 replicates; controls 4 of 9)
* R28A+N51K+Q96F -> 36 µM (1 of 3 replicates; controls 3 of 9)
* S26L+S89D+Q96P -> no signal (0 of 3 replicates; controls 3 of 9)

Nonspecific signal, from three strains lacking the peptide, appeared in 28% of pairings of library AAYL52, centred on 8.2 µM (5% of these signals below 800 nM); values are not corrected for it. For each scFv, signals with the empty controls are counted beside the result. In this assay the parent's reference entry averaged 200 nM; its copy inside this library read 180 nM.

Source: Engelhart et al. 2022 (doi:10.1038/s41597-022-01779-4), MIT Lincoln Laboratory and A-Alpha Bio; data file from the FLAb repository.